RAD52 anneal inh – RAD52 DNA annealing inhibitors, primary screen, biochemical, FRET, single point, set 2; recombinant RAD52 DNA annealing, FRET fluorescence; 360,000 compounds, 0.46% hits; inhibition, % at 18.7 µM; DNA repair protein RAD52 homolog (Homo sapiens), P43351; AID 651710, 2012;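 active means every replicate showing at least 50% inhibition; inconclusive means mean inhibition at least 50% but not in every replicate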
Yeast UUG start-1 – modulators of yeast start codon fidelity, primary screen, whole organism, S. cerevisiae, single point, plate reader; S. cerevisiae UUG-firefly luciferase reporter, luminescence/redox ratio; activity score, % at 18.7 µM; actives 0.13% (n = 350,000); AID 602363, 2012;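 active = replicate mean at a twofold rise or more, about +100% in these data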;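 also: firefly luciferase made from a UUG start codon reports start codon fidelity; reporter light over untreated wells divided by growth signal over untreated wells; some hits fall short of that in this replicate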
RAD54 branch – inhibitors of human RAD54 branch migration, primary screen, biochemical, fluorescence, single point. RAD54 Holliday junction branch migration, FAM/BHQ fluorescence. 360,000 compounds, 0.14% hits. inhibition, % at 10.4 µM. DNA repair and recombination protein RAD54-like (Homo sapiens), Q92698;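 active means mean normalized replicate activity at least 40 and at least half of replicates scoring 40 or more; inconclusive means only one of the two criteria met; inactive means mean below 40 and under half of replicates reaching 40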;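 further: 0% = median of neutral control wells and 100% = median of positive control wells; inhibitors cause a drop in the FAM fluorescence signal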
PglD inh – C. jejuni PglD acetyltransferase inhibitors, primary screen, biochemical, DTNB colorimetric, single point. inhibition, % at 12.5 µM. UDP-N-acetylbacillosamine N-acetyltransferase PglD (Campylobacter jejuni). purified PglD enzyme, DTNB colorimetric CoA detection. 360,000 compounds, 0.098% hits; in the data active means inhibition above about 16%, passing the limit was not always enough; inconclusive means no clear call, values can overlap the other calls
Casp6 inh – human caspase-6 inhibitors, primary screen, biochemical, VEID-R110 fluorescence, single point, set 2 | 350,000 compounds, 0.53% hits | AID 686996, 2013 | inhibition, % at 12.5 µM | P55212 | purified caspase-6, Z-VEID-R110 cleavage fluorescence;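 active means mean inhibition across replicates at least about 35%, with every replicate also reaching that limit, limit read from the data; inconclusive means only one of the two criteria met; inactive means neither criterion met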;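 further: 0% = median of neutral control wells and 100% = no fluorescence left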
INS-1E GSIS act – GLuc luminescence reporter in INS-1E cells, primary screen for activators of glucose-dependent secretion of insulin; activation, % at 16.6 µM; 370,000 compounds, 0.61% hits; INS-1E GLuc reporter insulin secretion, 2-3 h;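 active means lowest replicate activation of at least 40%, so every replicate reaches that level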;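 further: 0% = median of neutral control wells and 100% = median of IBMX positive control wells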
Rad54 DNA ctr – DNA binding of candidate compounds, dose response, artefact control for RAD54 inhibitor project, biochemical, fluorescence polarization, cherry-pick; shares compounds with RAD54 branch; 460 compounds, 8% hits; AID 651673, 2012; Acridine orange-DNA displacement, 20 min; AC50, µM (titrated, usually from 35 µM), inactives show at the top dose activity change, negative = DNA binding;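 active means signal drop giving an AC50 within twice the top valid tested concentration of each sample, actives reach about 35 µM in these data; inactive means activity opposite to expected, plus the rest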;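 further: polarization loss reports compound binding to salmon sperm DNA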
Yeast UUG start-2 – enhancers of UUG start codon usage in yeast, dose response, S. cerevisiae, UUG firefly luciferase, cherry-pick, set 2. activation, % at 38 µM. 540 tested, under 10 active. AID 652061, 2013. luminescence, 4 h; 100% means double the DMSO signal. shares compounds with Yeast UUG start-1;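 active means signal increase whose fitted curve reaches an absolute level of 40 at a concentration under 10 µM; inactive means activity opposite to the expected increase, or the rest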
Numbers without * were called inactive; ? = inconclusive; / = no result. Only some compounds are listed: those with a hit (about 1.5% of all), similar ones and a draw of the others.

SMILES	RAD52 anneal inh	Yeast UUG start-1	RAD54 branch	PglD inh	Casp6 inh	INS-1E GSIS act	others
Cc1c(N=Nc2c(O)[nH]c(=O)[nH]c2=O)c(=O)n(-c2ccccc2)n1C	-84	/	/	/	41*	-17
O=C1NC(=O)C(CCc2ccncc2)(c2ccccc2)C(=O)N1	/	-12	3	-2	/	/
Nc1c(C(=O)NCc2ccco2)c2nc3ccccc3nc2n1CCN1CCCCC1	/	6	75*	0	/	-8
C[n+]1c2ccccc2nc2ccc(NCCO)cc21	-38	-14	75*	4	83*	3
OCCNc1c2c(nc3ccccc13)CCCC2	/	-6	21	/	/	/
CNc1ccc2nc3ccccc3[n+](C)c2c1	-130	-13	98*	1	95*	-34
Cc1sc(-n2c(C)cc(C=C3C(=O)NC(=O)NC3=O)c2C)c(C#N)c1C	-125	/	/	/	6	0
O=C(C(=C1N(Cc2ccc(Cl)nc2)CCN1Cc1ccc(Cl)nc1)[N+](=O)[O-])C(Cl)Cl	-8	1	-2	6	36*	-3
O=C(COC(=O)Cc1ccccc1)Nc1cc(S(=O)(=O)N2CCOCC2)ccc1N1CCCC1	-36	4	-7	6	-3	4
O=C(COC(=O)Cc1ccccc1)Nc1cc(S(=O)(=O)N2CCCCC2)ccc1Cl	-12	/	/	/	71*	-8
C=C1C(=O)O[C@@H]2C[C@@H](C)[C@@H]3C=CC(=O)[C@@]3(C)[C@@H](OC(=O)CC(=O)O[C@H]3[C@@H]4C(=C)C(=O)O[C@@H]4C[C@@H](C)[C@@H]4C=CC(=O)[C@]43C)[C@H]12	-26	26	-13	0	5	/
C=C1C(=O)O[C@H]2C[C@@H](C)[C@@H]3C=CC(=O)[C@@]3(C)C[C@H]12	-20	/	/	/	74*	-30

Of the compounds above, two contain a Cl atom.
SMILES	RAD52 anneal inh	Yeast UUG start-1	RAD54 branch	PglD inh	Casp6 inh	INS-1E GSIS act	others
O=C(C(=C1N(Cc2ccc(Cl)nc2)CCN1Cc1ccc(Cl)nc1)[N+](=O)[O-])C(Cl)Cl	-8	1	-2	6	36*	-3
O=C(COC(=O)Cc1ccccc1)Nc1cc(S(=O)(=O)N2CCCCC2)ccc1Cl	-12	/	/	/	71*	-8

(cont.)
SMILES	RAD52 anneal inh	Yeast UUG start-1	RAD54 branch	PglD inh	Casp6 inh	INS-1E GSIS act	others
CCOC(=O)c1c(NS(=O)(=O)c2ccccc2)n(CCCOC)c2nc3ccccc3nc12	/	/	/	/	/	-13
CC(C)c1ccc(C(c2c(O)c3ccccc3oc2=O)c2c(O)c3ccccc3oc2=O)cc1	-3	/	/	/	66*	/
CCOC(=O)c1c(/N=C/c2c(O)n(-c3ccc(F)cc3)c(=S)[nH]c2=O)sc2c1CCCC2	/	/	/	/	/	75*
COc1cc2c(c(OC)c1)C(=O)OC(C)CCCC(=O)CCCCC2 (centres undefined)	0	-13	6	-5	1	7
O=C1NC(=O)C(=Cc2ccc(Sc3ccccc3)o2)C(=O)N1	-23	-23	4	2	5	/
O=C1NC(=O)N(c2ccc(Cl)cc2)C(=O)/C1=C\c1ccc(Sc2nc3ccccc3[nH]2)o1	-231	/	/	/	69*	-16
COc1ccc(Cc2nccc3cc(OC)c(OC)cc23)cc1OC	14	-5	-9	-7	54*	29
CCn1c(O)c(C=Nc2ccc(S(N)(=O)=O)cc2)c(=O)n(CC)c1=S	-18	/	/	/	1	/
NS(=O)(=O)c1ccc(N=Cc2c(O)n(C3CCCCC3)c(=O)n(C3CCCCC3)c2=O)cc1	/	-7	-15	2	/	739*
Cc1[nH]c2ccccc2c1CCNCc1cccnc1	-3	-13	-4	-5	-27	48*
Cc1[nH]c2ccccc2c1CCNCc1ccco1	-2	-3	-5	1	-11	-19
CC[C@H](C)[C@@H]1NC(=O)CNC(=O)c2csc(n2)[C@H](C(C)(C)O)OC(=O)C(C)(C)[C@H](CCCC(C)(Cl)Cl)OC(=O)c2csc1n2	-4	1	-5	-6	40*	/
[O-]c1ccccc1-[n+]1c(-c2ccccc2)cc(-c2ccccc2)cc1-c1ccccc1	61*	3	-1	0	0	-49
COC(=O)C1=C(c2ccc(F)cc2F)C[C@@H]2CC[C@H]1N2C(=O)NCCCOC(C)C	-14	-5	-4	-3	-2	6
CSc1ccc(CN2CCN(Cc3ccccc3Cl)CC2)cc1	-10	/	/	/	4	-11
COc1ccc(CN2CCN(Cc3ccccc3F)CC2)cc1	-7	-9	-16	-2	-2	43*
CCNCCNc1ccc([N+](=O)[O-])c2cccnc12	6	-14	56*	2	-4	/	Rad54 DNA ctr=-21%
O=C(NC1CN2CCC1CC2)c1cc(Cl)c([N+](=O)[O-])c2nc[nH]c12 (centres undefined)	/	-10	56*	-4	/	19	Rad54 DNA ctr=-12%
Cc1ccc(-c2nc(N(C)C3CCN(C)CC3)c3ccccc3n2)cc1	/	-14	96*	4	/	/	Rad54 DNA ctr=-22%
CN1CCC(N(C)c2ncnc3ccc(Br)cc23)CC1	/	-30	10	-10	/	11
COc1cc(C2c3cc(O)c(OC)cc3CC3C(=O)OCC32)ccc1O (centres undefined)	-10	-11	-3	0	1	-2
Nc1ccnn1C1CCNCC1	/	-10	93*	2	/	/	Rad54 DNA ctr=3%
CN1CCC(n2nccc2N)CC1	/	-25	10	6	/	/
O=C1NC(=O)C(=Cc2cc(Cl)ccc2OCc2ccc(C(=O)O)cc2)C(=O)N1	-16	/	/	/	3	15
NC(Cc1ccc(Cl)cc1)c1csc(Nc2ncccn2)n1 (centres undefined)	17	/	-1	0	0	-3
CC(Cc1ccccc1)NCC(=O)Nc1cc(N(C)C)nc2ccccc12 (centres undefined)	11	11	?	-6	-2	-14	Rad54 DNA ctr=-2%
CC(Cc1ccccc1)NCc1ccccc1O (centres undefined)	-9	-15	-3	1	2	1
Nc1ccc(C2(c3ccc(N)cc3)CN3CCC2CC3)cc1	/	-38	96*	5	/	17	Rad54 DNA ctr=0%
CC(=O)c1cccc(OCC(O)CN2CC=C(c3ccccc3)CC2)c1 (centres undefined)	/	10	-3	-7	/	/
Cc1cccc(OCC(O)CN2CC2)c1 (centres undefined)	-1	143*	-4	-2	-1	14	Yeast UUG start-2=6
COC(=O)C1=C(c2ccc(F)cc2OCc2ccccc2)C[C@@H]2CC[C@H]1N2C(=O)NCCCc1ccccc1	6	-14	-2	5	-1	-14

Random excerpt: 4 entries already listed, in no set order.
SMILES	RAD52 anneal inh	Yeast UUG start-1	RAD54 branch	PglD inh	Casp6 inh	INS-1E GSIS act	others
O=C1NC(=O)C(=Cc2cc(Cl)ccc2OCc2ccc(C(=O)O)cc2)C(=O)N1	-16	/	/	/	3	15
Cc1sc(-n2c(C)cc(C=C3C(=O)NC(=O)NC3=O)c2C)c(C#N)c1C	-125	/	/	/	6	0
COc1ccc(Cc2nccc3cc(OC)c(OC)cc23)cc1OC	14	-5	-9	-7	54*	29
COC(=O)C1=C(c2ccc(F)cc2F)C[C@@H]2CC[C@H]1N2C(=O)NCCCOC(C)C	-14	-5	-4	-3	-2	6
